Measurements as given in patent publication US11591336B2 (Relay Therapeutics, Inc., priority 2017, dated 2023).
Like-named read-outs stand apart in the source and are kept apart here.

Protein sequences, listed by entry. Tags and fused reporters are not part of them.
UniProt Q06124, whole entry: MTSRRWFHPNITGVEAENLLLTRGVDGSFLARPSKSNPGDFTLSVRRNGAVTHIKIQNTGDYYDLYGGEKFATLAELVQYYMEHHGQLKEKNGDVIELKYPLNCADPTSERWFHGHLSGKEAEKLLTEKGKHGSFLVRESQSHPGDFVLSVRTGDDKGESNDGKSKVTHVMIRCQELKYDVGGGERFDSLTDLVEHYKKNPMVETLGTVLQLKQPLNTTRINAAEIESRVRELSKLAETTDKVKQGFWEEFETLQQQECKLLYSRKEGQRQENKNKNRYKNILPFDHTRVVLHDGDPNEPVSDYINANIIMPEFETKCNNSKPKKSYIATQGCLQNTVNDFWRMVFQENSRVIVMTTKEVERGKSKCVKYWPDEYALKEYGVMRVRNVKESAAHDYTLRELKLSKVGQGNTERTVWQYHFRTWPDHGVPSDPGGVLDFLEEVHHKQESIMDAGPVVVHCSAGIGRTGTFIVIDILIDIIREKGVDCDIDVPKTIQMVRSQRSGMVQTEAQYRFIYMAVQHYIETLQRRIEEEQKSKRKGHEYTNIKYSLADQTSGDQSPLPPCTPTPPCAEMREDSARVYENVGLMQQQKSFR

Molecular target: SHP2 (Homo sapiens (Human), UniProt Q06124)
Experiment: SHP2 Allosteric Inhibition Assay (DiFMUP prompt fluorescence)
Format: biochemical
Conditions: read-out: SHP2 IC50, 0.25 nM SHP2 activated with 0.5 μM peptide IRS1_pY1172(dPEG8)pY1222, substrate DiFMUP 100 μM, 25° C.

With `C[C@@H]1OCC2(CCN(c3cnc4c(N5CCCc6nc(-c7nccs7)ccc65)n[nH]c4n3)CC2)[C@@H]1N` the IC50 (tested form: HCl) was < 1 µM.
`C[C@@H]1OCC2(CCN(c3cnc4c(N5CCN(C6CCOCC6)c6ncccc65)n[nH]c4n3)CC2)[C@@H]1N` was tested, and the IC50 was < 1 µM.
